Ab-14 light chain CDR variants: yeast mating affinities

Target: peptide PDVDLGDISGINAS, taken from heptad repeat 2 (HR2) of SARS-CoV-2 spike.

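Phage display of a naive human antibody library on the peptide gave the parent. AAYL50 was designed without a model: most single CDR substitutions and a random sample of double and triple ones. AlphaSeq pools MATa yeast showing the antibodies with MATalpha yeast showing the peptide. The frequency of each diploid, read from paired DNA barcodes, reflects how well the two displayed proteins bind. The ratio of observed to expected reads was calibrated, replicate by replicate, on BCL2-family standards whose Kd was known from biolayer interferometry. The assay was run in three technical replicates.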

Parent: Ab-14, a human scFv built as VH, a (GGGGS)3 linker, VL. Only the CDRs of the light chain vary.
VH: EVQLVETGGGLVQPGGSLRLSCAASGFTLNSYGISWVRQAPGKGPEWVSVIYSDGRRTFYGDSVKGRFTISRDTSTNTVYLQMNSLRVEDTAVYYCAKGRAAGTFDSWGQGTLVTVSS
VL: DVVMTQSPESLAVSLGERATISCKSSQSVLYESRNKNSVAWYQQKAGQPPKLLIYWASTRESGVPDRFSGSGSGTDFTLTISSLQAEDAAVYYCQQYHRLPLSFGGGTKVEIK

Variants are written as CDR1, CDR2 and CDR3 of the light chain (limits as in the source). Parent: KSSQSVLYESRNKNSVA, WASTRES, QQYHRLPLS.
Numbers give log10(Kd / nM), so 0 is 1 nM and 3 is 1 µM. Smaller is tighter.
Averages over replicates are reported, and they cover detected replicates only.
"nd" means that the variant was in the library but no mating with the target was seen in that replicate; the authors take this as a sign of poor binding, and no number exists.
Parent in this assay: reference entry 0.65, copy in this library 1.68.
Background: pairings of library AAYL50 with three empty control strains gave a value in 18% of cases (median 4.19, 5th percentile 2.99). Values in that range, when seen in few replicates, are hard to tell from nonspecific mating. Also given: how often the same scFv was detected with the empty control strains, with their mean in brackets.

CDR-L1 | CDR-L2 | CDR-L3 | replicates, log10 nM | mean log10 Kd (nM) | control signals
KSSQSVKYESRAKNSVA | WASGRES | QQYHRLPLS | 3.82 / nd / nd | 3.82 | 5 of 9 (4.37)
KSSQSVLYESRSKNSVW | WASTGES | QQYHRLPLS | nd / nd / nd | nd | 0 of 9
KSTQSVLYEQRNKNYVA | WASTRES | QQYHRLPLS | nd / 1.59 / nd | 1.59 | 0 of 9
KSSQSVLYESRNKNSVA | WASTRKS | QQYHRLPLS | 2.96 / nd / nd | 2.96 | 0 of 9
KGSQSVLYESRNKNSVA | MASTREF | QQYHRLPLS | 0.39 / 0.52 / 0.74 | 0.55 | 0 of 9
KSSQSVLYESPNKNHVA | WASTRES | QQYMRLPLS | nd / nd / nd | nd | 0 of 9
KSSQSVLYESRNKNSVA | WADTREC | GQYHRLPLS | 3.81 / nd / 2.43 | 3.12 | 1 of 9 (3.63)
KSSFSVLYESRNKNSVA | WASTRES | QQYWRLPLS | 1.06 / 0.50 / 0.54 | 0.70 | 0 of 9
KSSQSVLYYSRRKNSVA | WASTRES | QHYHRLPLS | nd / nd / nd | nd | 0 of 9
KASQSVLYCSRNKNSVG | WASTRES | QQYHRLPLS | 5.96 / 4.32 / nd | 5.14 | 3 of 9 (4.31)
KSAQSVLYESRNKNSVF | WASTRES | FQYHRLPLS | nd / 5.18 / nd | 5.18 | 2 of 9 (4.48)
KSSQSVLYESRNKNSVA | WASTHES | QQNHHLPLS | nd / nd / nd | nd | 0 of 9
KPSQSVLYEIRNKNSVA | WASTRES | QQYHRLPES | nd / nd / nd | nd | 1 of 9 (3.71)
KSSQSGLYESRNKNWVA | WASTREG | QQYHRLPLS | nd / nd / nd | nd | 1 of 9 (2.46)
KGSQMVLYESRNKNSVA | WASTRES | QQYHRLPLG | 3.22 / 3.09 / nd | 3.16 | 1 of 9 (4.18)
KSSQSVLYESRNKNSVA | WADTWES | QQYHRLPLS | nd / nd / nd | nd | 0 of 9
GSSQSVLYESRNKNSTA | WASTRES | QQYERLPLS | nd / nd / nd | nd | 3 of 9 (3.33)
KSSQSGLYESRNKFSVA | WASTRES | QNYHRLPLS | nd / nd / nd | nd | 0 of 9
KSSQSVLYESRGKNSVA | WASTREI | QQYHLLPLS | 1.43 / 1.42 / 1.41 | 1.42 | 0 of 9
KSSYSVLPESRNKNSVA | WASTFES | QQYHRLPLS | 3.95 / nd / nd | 3.95 | 3 of 9 (4.11)
KSSCSVLYESRNKISVA | WASTRES | QQYHFLPLS | nd / nd / nd | nd | 0 of 9
KHSQSVLHESRNKNSVA | WASTRES | MQYHRLPLS | nd / nd / nd | nd | 2 of 9 (4.45)
KSSQSVLYESRNKNQVA | WASTRES | QEYHRLPLS | 3.70 / 3.59 / 2.73 | 3.34 | 0 of 9
KSSQSVLRESCNYNSVA | WASTRES | QQYHRLPLS | 2.46 / 2.06 / 2.88 | 2.47 | 1 of 9 (3.03)
KNSQSMLYESRNKNSVA | WAPTRES | QQYHRLPLS | 3.99 / 5.05 / nd | 4.52 | 1 of 9 (3.04)
KSSQSVLYESRNKWFVA | WASTRAS | QQYHRLPLS | 5.03 / 4.23 / 6.27 | 5.18 | 5 of 9 (4.27)
KSPQSVLYESCNKNSVA | WASTVES | QQYHRLPLS | nd / 3.64 / nd | 3.64 | 0 of 9
KSSQSVLYISRNKNSVA | WASTRES | QFYHRLPLS | 2.58 / nd / 3.04 | 2.81 | 0 of 9
KSSDSVTYSSRNKNSVA | WASTRES | QQYHRLPLS | 0.96 / 1.08 / 1.10 | 1.04 | 6 of 9 (4.58)
KSSQSVLYMSRNTNSVA | WASTRES | QQGHRLPLS | nd / nd / nd | nd | 0 of 9
NSSQSWLYESRNKNSVA | WASTRES | QQYHRLPMS | 2.73 / 2.65 / 2.76 | 2.71 | 5 of 9 (4.48)
KVSQSVLYESRNKNYVA | WWSTRES | QQYHRLPLS | nd / nd / 3.42 | 3.42 | 3 of 9 (4.32)
KSSQSVLMESRNANSVA | WASTREL | QQYHRLPLS | 0.53 / 0.71 / 0.62 | 0.62 | 4 of 9 (4.91)
KSSQSVLRESRNKNSVA | WASTRES | MQYHRLQLS | 3.58 / 2.60 / 2.43 | 2.87 | 4 of 9 (4.24)
FSSQSVLYESRNKNSVA | WASTREG | QQYHRMPLS | nd / 3.45 / 4.08 | 3.76 | 1 of 9 (5.27)
KSSQSVLYEKRNKNSVA | WASTLES | QQYHRLPLS | 2.00 / 2.16 / 2.14 | 2.10 | 1 of 9 (3.98)
KSSQWVLYESRNKKSVA | WASTRES | QQYHRLDLS | nd / nd / nd | nd | 1 of 9 (3.84)
KSSQSVLYEWRNKNSVA | WAKYRES | QQYHRLPLS | 3.14 / 2.52 / 3.46 | 3.04 | 2 of 9 (5.12)
KCSQSVLYESSNKNSVA | WASTRES | QQYHRLPLS | 0.68 / 0.61 / 0.67 | 0.65 | 2 of 9 (4.33)
KSSTSVLYESRNKNSVA | WASTRES | QQYHALPLS | 1.57 / 1.94 / 1.78 | 1.76 | 2 of 9 (3.39)
KSSGSVLYESRNGNCVA | WASTRES | QQYHRLPLS | 2.24 / 2.22 / 2.78 | 2.41 | 2 of 9 (4.56)

The closing 2 entries, repeated:

CDR-L1 | CDR-L2 | CDR-L3 | replicates, log10 nM | mean log10 Kd (nM) | control signals
KSSTSVLYESRNKNSVA | WASTRES | QQYHALPLS | 1.57 / 1.94 / 1.78 | 1.76 | 2 of 9 (3.39)
KSSGSVLYESRNGNCVA | WASTRES | QQYHRLPLS | 2.24 / 2.22 / 2.78 | 2.41 | 2 of 9 (4.56)

Reference: Engelhart et al. 2022, doi:10.1038/s41597-022-01779-4. File: FLAb, binding data.